Measured values from US20120077828A1, “CHEMICAL COMPOUNDS” (priority 2010, published 2012).

Molecular target: T1, PERK (Homo sapiens, UniProt Q9NZJ5)
T1 construct: GST-PERK (536-1116) cytoplasmic domain was purchased from Invitrogen; purchased Invitrogen PV5106
T1 sequence (Q9NZJ5 536-1116): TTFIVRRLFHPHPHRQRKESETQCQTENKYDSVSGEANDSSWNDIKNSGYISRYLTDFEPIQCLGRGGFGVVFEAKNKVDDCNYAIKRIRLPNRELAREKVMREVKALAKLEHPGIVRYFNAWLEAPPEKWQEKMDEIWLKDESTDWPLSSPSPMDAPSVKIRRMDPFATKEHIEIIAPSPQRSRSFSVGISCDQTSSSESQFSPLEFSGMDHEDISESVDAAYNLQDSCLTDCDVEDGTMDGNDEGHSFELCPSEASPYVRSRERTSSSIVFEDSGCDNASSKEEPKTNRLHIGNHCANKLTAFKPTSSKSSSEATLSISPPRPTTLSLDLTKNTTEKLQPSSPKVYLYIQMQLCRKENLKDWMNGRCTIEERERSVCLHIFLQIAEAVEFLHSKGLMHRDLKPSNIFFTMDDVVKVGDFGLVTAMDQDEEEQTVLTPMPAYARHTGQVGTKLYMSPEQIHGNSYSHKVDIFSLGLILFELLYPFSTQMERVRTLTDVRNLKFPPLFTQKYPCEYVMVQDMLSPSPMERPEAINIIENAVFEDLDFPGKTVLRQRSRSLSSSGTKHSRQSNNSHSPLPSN
Test: PKR-like Endoplasmic Reticulum Kinase (PERK) Assay (HTRF Format)
Assay type: biochemical
Details: average, in at least one set of experimental runs; read-out: average pIC50 value against PERK (converted)
Description: PKR-like Endoplasmic Reticulum Kinase (PERK) Assay (HTRF Format)
Source of substrate: elF2α: 6-His-Full-length human elF2α is purified from baculovirus expression in Sf9 insect cells. The elF2 protein is buffer exchanged by dialysis into PBS, chemically modified by NHS-LC-Biotin and then buffer exchanged by dialysis into 50 mm TRIS pH 7.2/250 mM NaCl/5 mM DTT. Protein is aliquoted and stored at −80° C.
Assays were performed by adding GST-PERK solution to assay plates containing compounds and pre-incubated for 30 minutes at room temperature. The reaction is initiated by the addition of ATP and EIF2α substrate solution. Quench solution is added following a one hour incubation at room temperature. The plates are covered for 2 hours at room temperature prior to determination of signal. The resulting signal is quantified on a Viewlux Reader (PerkinElmer). The APC Signal is normalized to the Europium signal by transforming the data through an APC/Eu calculation.
Compounds under analysis were dissolved in DMSO to 1.0 mM and serially diluted 1 to 3 with DMSO through eleven dilutions. […]
The data for concentration response curves were plotted as % Inhibition calculated with the data reduction formula 100*(1−(U1−C2)/(C1−C2)) versus concentration of compound where U is the unknown value, C1 is the average control value obtained for 1% DMSO, and C2 is the average control value obtained for 0.1 M EDTA. […]

Work on Cn1cc(-c2ccc3c(c2)CCN3C(=O)Cc2cccc(C(F)(F)F)c2)c2c(N)ncnc21 [Example 44, 7-methyl-5-(1-{[3-(trifluoromethyl)phenyl]acetyl}-2,3-dihydro-1H-indol-5-yl)-7H-pyrrolo[2,3-d]pyrimidin-4-amine] yielded an IC50 of no more than 1 nM.

With Nc1ncc(-c2cccnc2)c2scc(-c3ccc4c(c3)CCN4C(=O)Cc3ccccc3)c12 [Example 7, 3-[1-(phenylacetyl)-2,3-dihydro-1H-indol-5-yl]-7-(3-pyridinyl)thieno[3,2-c]pyridin-4-amine] the IC50 was 3.16 nM.
